Where a name gives a salt, the structure may show the parent alone.
Molecular target: T1, human gene recombinant 5-HT7 receptor expressed in CHO cells (Homo sapiens, UniProt P34969)
T1 construct: expressed in transfected cells; host or cells: CHO cells (membrane preparation)
Assay: Binding affinity for the 5-HT7 serotonin receptor ([3H]LSD radioligand)
Method: In this example, the human gene recombinant 5-HT7 receptor expressed in CHO cells was used. 1 nM [^3H]LSD, 5-HT7 receptor membrane (15 μg/well), a test drug, 10 mM MgCl2, 50 mM Tris-HCl buffer (pH 7.4) containing 0.1 mM EDTA, etc. were added to a vessel until the final volume reached 0.25 ml. The test drug was used at various concentrations. The mixture was cultured at 25° C. for 90 min. The culture was rapidly filtered through a Whatman GF/C glass fiber filter, which had been previously wetted with 0.3% polyethyleneimine using a Brandel harvester, to quench the reaction. The reaction mixture was washed with cold 50 mM Tris-HCl buffer. The filter was covered with MeltiLex, sealed in a sample bag, and dried in an oven. Counting was performed using MicroBeta (Wallac) and nonspecific binding was measured in the presence of […]. The K value of the test drug was obtained from nonlinear regression analysis (GraphPad Prism Program, San Diego, USA) of isotherms obtained by repeatedly performing the experiment on the drug at 10-11 stage concentrations in two test tubes (each twice).
The % inhibition values of the inventive compounds having different Y structures at a concentration of 10 μM against the 5-HT7 serotonin receptor were measured. […]

Protein sequences, listed by entry. Tags and fused reporters are not part of them.
UniProt P34969, whole entry: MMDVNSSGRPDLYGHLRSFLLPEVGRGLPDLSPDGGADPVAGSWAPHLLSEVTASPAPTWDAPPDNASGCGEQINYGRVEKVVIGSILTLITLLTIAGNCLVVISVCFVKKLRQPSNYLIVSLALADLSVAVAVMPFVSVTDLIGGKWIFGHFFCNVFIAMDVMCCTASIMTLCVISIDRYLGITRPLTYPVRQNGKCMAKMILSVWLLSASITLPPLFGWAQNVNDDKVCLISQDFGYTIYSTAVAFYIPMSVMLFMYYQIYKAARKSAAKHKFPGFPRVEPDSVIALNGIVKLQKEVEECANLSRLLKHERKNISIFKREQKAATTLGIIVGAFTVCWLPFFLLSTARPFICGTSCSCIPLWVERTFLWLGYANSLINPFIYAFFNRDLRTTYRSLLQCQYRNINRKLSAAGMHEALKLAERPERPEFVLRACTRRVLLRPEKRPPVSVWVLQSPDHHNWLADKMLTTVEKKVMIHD

| Ki [nM] | SMILES |
| --- | --- |
| 604 | CN(CCCCCC(=O)n1c2ccccc2c2ccccc21)Cc1ccccc1 [Example 2.2, 6-(Benzyl)methyl)amino)-1-(9H-carbazol-9-yl)hexan-1-one hydrochloride] |
| 364 | CC1CCN(CCCCCC(=O)n2c3ccccc3c3ccccc32)CC1 [Example 2.4, 1-(9H-carbazol-9-yl)-6-(4-methylpiperidin-1-yl)hexan-1-one] |
